For the experiment, the target named is S. aureus Newman Δspa (Protein A deficient strain), bacterial surface. Kind of experiment: flow cytometry on fixed S. aureus Δspa, Fc fragment 5 ug/mL.

With “Alexa-488 labeled IgG1 Fc fragment (from UniProt P01857 104-330)”, the geomean fluorescent signal stood at 12.

For the origin of these results see US20240301041A1.
